Experimental data taken from the supplement of paper PMC10933113.

Experiments:
THP-1 [1] = assay: efficacy of IL-8 induction relative to DMSO (% activity); higher = stronger induction; conditions: exposure time: 18 h
[2] = test system: KeratinoSens (HaCaT ARE-luciferase) cells; assay: cytotoxicity AC50 (CellTiter-Fluor viability); higher = less cytotoxic; conditions: exposure time: 24 h
[3] = test system: KeratinoSens (HaCaT ARE-luciferase) cells; assay: efficacy of ARE luciferase induction relative to DMSO (% activity over DMSO); higher = stronger induction; conditions: exposure time: 24 h
[4] = test system: lysine peptide Ac-RFAAKAA-COOH; assay: efficacy of lysine peptide change (negative = depletion) (% activity); higher = less depletion; conditions: incubation time: 24 h
[5] = test system: cysteine peptide Ac-RFAACAA-COOH; assay: efficacy of cysteine peptide change (negative = depletion) (% activity); higher = less depletion; conditions: incubation time: 24 h
[6] = test system: cysteine peptide Ac-RFAACAA-COOH; assay: AC50 of cysteine peptide concentration-response (direction given by sign of efficacy); higher = less potent; conditions: incubation time: 24 h
[7] = test system: KeratinoSens (HaCaT ARE-luciferase) cells; assay: AC50 of Nrf2/ARE luciferase induction; higher = less potent; conditions: exposure time: 24 h
THP-1 [8] = assay: AC50 of IL-8 secretion induction; higher = less potent; conditions: exposure time: 18 h

SMILES | efficacy of IL-8 induction (THP-1 [1]) | cytotoxicity AC50 [2] [µM] | efficacy of ARE luciferase induction [3] | efficacy of lysine peptide change [4] | efficacy of cysteine peptide change [5] | AC50 [6] [µM] | AC50 of Nrf2/ARE luciferase induction [7] [µM] | AC50 of IL-8 secretion induction (THP-1 [8]) [µM]
Nc1cccc2ccccc12 [1-Naphthylamine] | 6.81 ± 6.4 | 48.3 ± 3.1 | 7.83 ± 14 | -7.53 ± 14 | -74.3 ± 4.4 | 1.13 ± 0.13 | – | –
C=CC(=O)OCC(CC)CCCC (stereo not given) [2-Ethylhexyl acrylate] | -2.33 ± 4 | – | -6.31 ± 8.9 | -14.6 ± 7.2 | 6 ± 10 | – | – | –
C=CC(=O)OCCOc1ccccc1 [2-Phenoxyethyl acrylate] | 15 ± 7.2 | 55.2 ± 14 | 92.8 ± 52 | 14.4 ± 6.6 | -106 ± 3 | 48.3 ± 3.1 | 50.1 | –
Oc1cccc2cccnc12 [8-Hydroxyquinoline citrate] | 93 ± 1.8 | 2.93 ± 0.2 | -44 ± 5.1 | -23.8 ± 16 | -69.7 ± 19 | 14.9 ± 3.4 | – | 4.83
Cn1c(=O)c2c(ncn2C)n(C)c1=O [Caffeine] | 2.79 ± 4.8 | – | 39.2 ± 43 | -8.46 ± 8.2 | -10.6 ± 5.6 | – | – | –
NNc1nncc2ccccc12 [Hydralazine hydrochloride] | 35.5 ± 3.4 | 63.9 ± 12 | 50.9 ± 25 | -22.2 ± 1.9 | -16.5 ± 11 | – | 27.8 | –
Oc1ccc(O)cc1 [Hydroquinone] | 41.3 ± 19 | 48.7 ± 19 | 109 ± 270 | -19.3 ± 5.9 | -111 ± 8 | 17.6 ± 8.3 | – | –
CCOC(=O)N1CCC(=C2c3ccc(Cl)cc3CCc3cccnc32)CC1 [Loratadine] | – | – | – | -4.11 ± 17 | 15 ± 1.3 | – | – | –
CC(=O)[O-].CC(=O)[O-].[Hg+2] [Mercury(II) acetate] | 17.6 ± 5.9 | 4.92 ± 1.2 | 175 ± 300 | -21 ± 8.9 | -98.1 ± 11 | 7.43 ± 2.6 | – | –
CC(O)C(=O)[O][Hg][c]1ccccc1 (stereo not given) [Phenylmercuric lactate] | 22.2 ± 4 | 18 ± 3.8 | 30.5 ± 52 | – | – | – | – | –
CCOC(=S)S [Potassium ethyl xanthate] | 47.9 ± 18 | – | 133 ± 110 | -9.96 ± 12 | -105 ± 10 | 89.5 ± 10 | 63.9 | –
O=[N+]([O-])[O-].[K+] [Potassium nitrate] | 0 | – | 7.32 ± 10 | -4.43 ± 7.7 | 0 | – | – | –
CN1CCCN=C1/C=C/c1cccs1 [Pyrantel tartrate] | 6.24 ± 6.5 | – | 23.7 ± 31 | 61 ± 9.5 | 3.83 ± 6.6 | – | – | –
CCC[CH2][Sn]([Cl])([CH2]CCC)[CH2]CCC [Tributyltin chloride] | 50.9 ± 8 | 8.27 ± 0.56 | 475 ± 98 | 25.2 ± 7.1 | 127 ± 65 | – | 8.63 | 16.9
C=C(C)C(=O)[O][Sn]([CH2]CCC)([CH2]CCC)[CH2]CCC [Tributyltin methacrylate] | 26 ± 2.1 | 6.13 ± 1 | 118 ± 40 | 14.7 ± 15 | 123 ± 84 | – | 2.74 | –
CN(C)C(=S)[S-].CN(C)C(=S)[S-].[Zn+2] [Ziram] | 96.2 ± 15 | 4.14 ± 0.28 | -34.2 ± 4.8 | -5.71 ± 9.9 | -44.2 ± 10 | 34 ± 23 | – | 5.44

Where a name gives a salt, the structure may show the parent alone. ± gives the uncertainty stated by the source.
